Test results reported in US20110028453A1, “Treating Negative Symptoms of Schizophrenia Associated with Defective Neuregulin 1” (priority 2009, published 2011).

Tested on: ErbB4
Assay: Western blot of ErbB4 level in brain compartments of desipramine-treated mice
Assay type: in vivo, mouse
Conditions: 20 mg/kg i.p. twice a day for four days
Excerpt: Transmembrane (TM)-domain NRG1 heterozygous mutant mice (129S5-Nrg1tm1Lex, ID#011745-UCD) were obtained from Mutant Mouse Regional Resource Centers (MMRRC) and backcrossed with B6 mice. NRG1^+/− mice and their wild-type littermates were generated by in-house mating of male NRG1^+/− mice and female C57BL/6 mice. Heterozygous crossing has been practiced for at least 7 generations to obtain animals with a homogeneous C57BL/6 genetic background except for the TM-mutated nrg1 gene locus. Mouse genotypes were determined by PCR analysis. Animals were housed (five per cage) under a 12-hr light/dark cycle (lights on from 8:00 a.m. to 8:00 p.m.) at constant room temperature and relative humidity with food and water available ad libitum. All experiments were started at 10-week-old period at weight of 25-30 g.
Both wild-type and NRG1^+/− mice were injected intraperitoneally with freshly prepared desipramine hydrochloride (Sigma, St. Louis, Mo.) at 20 mg/kg, twice a day for four days, following the method described in Kozisek et al., Neuropharmacology 54:251-257; 2008). Control mice were injected with a saline vehicle. […] The supernatants were collected and analyzed by Western blotting to examine levels of ErbB4, following the method described in Example 1 above.

For `CNCCCN1c2ccccc2CCc2ccccc21` [desipramine], the “ErbB4 expression increase compared with control mice” value (amygdala, P<0.01) was 1.3±0.1 fold and the “ErbB4 expression increase compared with control mice” value (frontal cortex, P<0.05) was 1.47±0.2 fold.
